# Values of other authors as cited in paper PMC3087300 (Bioorganic & medicinal chemistry, 2009).
# Protein sequences, listed by entry. Tags and fused reporters are not part of them. Residues count along the entry.
# UniProt P07288, 25-261: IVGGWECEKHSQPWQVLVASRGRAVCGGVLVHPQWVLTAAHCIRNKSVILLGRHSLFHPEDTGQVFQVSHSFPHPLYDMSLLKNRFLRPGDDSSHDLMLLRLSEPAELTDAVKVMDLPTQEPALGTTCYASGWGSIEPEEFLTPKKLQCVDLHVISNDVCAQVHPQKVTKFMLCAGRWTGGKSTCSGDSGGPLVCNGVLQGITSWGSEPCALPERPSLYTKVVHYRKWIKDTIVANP
# Target: PSA (Homo sapiens, UniProt P07288)
# Settings: read-out: Ki for PSA; parent boronic acid, previous report; cited from earlier work
substance,measurement,value
Cbz-Ser-Ser-Lys-Leu- (boro)Leu (SSKLL) [Compound 1],Ki,65 nM
